This passage reports Kb results from patent US6124354A, “Arylcycloalkane carboxylic esters, their use, pharmaceutical compositions and preparation” (dated 2000).

Chains of the proteins cited; added tags and fusions are not shown. Residues count along the entry.
UniProt H0W1Z3, 1-590: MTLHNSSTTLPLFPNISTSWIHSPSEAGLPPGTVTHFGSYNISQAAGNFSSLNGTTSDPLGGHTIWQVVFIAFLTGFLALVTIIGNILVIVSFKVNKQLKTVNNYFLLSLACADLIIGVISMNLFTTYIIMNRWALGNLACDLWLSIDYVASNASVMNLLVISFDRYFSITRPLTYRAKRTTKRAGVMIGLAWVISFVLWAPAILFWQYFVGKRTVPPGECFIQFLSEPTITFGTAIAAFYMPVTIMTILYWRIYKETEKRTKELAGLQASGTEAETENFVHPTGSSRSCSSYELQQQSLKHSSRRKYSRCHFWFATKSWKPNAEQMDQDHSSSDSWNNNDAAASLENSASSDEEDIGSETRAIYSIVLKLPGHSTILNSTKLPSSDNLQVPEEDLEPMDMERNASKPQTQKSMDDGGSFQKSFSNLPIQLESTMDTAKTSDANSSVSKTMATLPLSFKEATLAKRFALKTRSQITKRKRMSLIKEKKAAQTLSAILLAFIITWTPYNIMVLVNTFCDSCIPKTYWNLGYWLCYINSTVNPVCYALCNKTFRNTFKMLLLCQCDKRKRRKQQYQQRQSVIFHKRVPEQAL

The first assay concerns the target urinary bladder smooth muscle (muscarinic receptor) (Cavia porcellus, UniProt H0W1Z3). Put plainly: Functional in vitro study: antagonism of carbachol-induced contraction of urinary bladder smooth muscle strips (KB). The following applies: Table 2; guinea pig urinary bladder, carbachol agonist, 60 min incubation.
What is called Kb is the affinity of an antagonist, worked out from how it opposes an agonist. Turning to `Cc1cccc(C2(C(=O)OC3CN4CCC3CC4)CCC2)c1` (centres unmarked), the Kb was 0.8 nM.

`CC1(C)CC(C(=O)OC2CN3CCC2CC3)(c2ccccc2)C1` (centres unmarked) had a Kb of 0.2 nM.

`COc1cccc(C2(C(=O)OC3CN4CCC3CC4)CCC2)c1` (centres unmarked): the Kb is 8.7 nM.

`COc1ccc(C2(C(=O)OC3CN4CCC3CC4)CCC2)cc1` (centres unmarked) came in with a Kb of 24 nM. The same measure, in the same setting: with `O=C(OC1CN2CCC1CC2)C1(c2cccc([N+](=O)[O-])c2)CCC1` (centres unmarked) the figure was 28 nM; with `CC1C(OC(=O)C2(c3ccccc3)CCC2)C2CCN1CC2` (centres unmarked), 0.7 nM. Regarding `O=C(OC1CN2CCC1CC2)C1(c2cccs2)CCC1` (centres unmarked), the Kb came out at 0.4 nM.

The assay is the same for the next values; noted with them: Table 3; guinea pig urinary bladder, carbachol agonist, 60 min incubation.
Consider `O=C(OC1CN2CCC1CC2)C1(c2cccs2)CCCC1` (centres unmarked), for which the Kb was determined as 0.7 nM. The same measure, in the same setting: then `O=C(OC1CN2CCC1CC2)C1(c2ccsc2)CCCC1` (centres unmarked), with 0.3 nM.

The assay is the same for the next values; noted with them: Table 4; guinea pig urinary bladder, carbachol agonist, 60 min incubation.
Take `COC1CCC(C(=O)OC2CN3CCC2CC3)(c2ccccc2)CC1` (centres unmarked): the Kb is 2 nM. That is a single-digit nanomolar value. `O=C(OC1CN2CCC1CC2)C1(c2ccccc2)CCCCC1` (centres unmarked) displayed an antagonist equilibrium constant (Kb) of 0.4 nM.
